Biological target: SHP2 (Homo sapiens (Human), UniProt Q06124)
Assay: SHP2 allosteric inhibition assay (DiFMUP prompt fluorescence)
Format: biochemical
Conditions: 0.5 nM SHP2 activated with 0.5 μM peptide IRS1_pY1172(dPEG8)pY1222; substrate DiFMUP; 25° C.

Protein sequences, listed by entry. Tags and fused reporters are not part of them.
UniProt Q06124, whole entry: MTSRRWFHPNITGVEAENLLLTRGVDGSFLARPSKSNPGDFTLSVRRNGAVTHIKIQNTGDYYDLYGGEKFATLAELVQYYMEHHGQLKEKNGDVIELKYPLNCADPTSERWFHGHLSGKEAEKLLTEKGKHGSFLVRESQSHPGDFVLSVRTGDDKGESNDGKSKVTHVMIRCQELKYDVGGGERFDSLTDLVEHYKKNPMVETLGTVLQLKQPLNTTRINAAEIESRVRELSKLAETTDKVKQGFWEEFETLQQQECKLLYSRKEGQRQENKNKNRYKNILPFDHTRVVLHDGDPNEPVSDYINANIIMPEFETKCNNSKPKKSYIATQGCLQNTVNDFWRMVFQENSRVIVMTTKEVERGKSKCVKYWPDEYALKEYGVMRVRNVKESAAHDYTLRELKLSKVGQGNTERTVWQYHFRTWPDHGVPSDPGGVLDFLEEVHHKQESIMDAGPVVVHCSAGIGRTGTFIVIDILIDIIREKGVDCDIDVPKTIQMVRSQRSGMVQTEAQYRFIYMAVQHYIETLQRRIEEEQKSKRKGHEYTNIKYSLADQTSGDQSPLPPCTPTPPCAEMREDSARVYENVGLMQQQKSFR

Row | Structure (SMILES) | IC50
1 | C[C@@H]1OCC2(CCN(c3nc(N)c(Sc4ccnc(NC5CC5)c4Cl)c(=O)n3C)CC2)[C@@H]1N | 32 nM
2 | COc1nccc(Sc2c(N)nc(N3CCC4(CC3)CO[C@@H](C)[C@H]4N)n(C)c2=O)c1C(F)(F)F | 17 nM

Source: patent US10308660B2, “Compounds and compositions for inhibiting the activity of SHP2” (Novartis AG, priority 2015, dated 2019)
